Membrane permeability of cyclic peptides

Data: CycPeptMPDB; original report Rand et al. 2012, doi:10.1039/c2md20203d.

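Conditions beyond the assay type are not listed; see the original paper. Other peptides of the study may be missing here. Peptides that the database sets to -10, its floor, are left out.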

RRCK is a low-efflux MDCK cell line.
Permeability is in 10^-6 cm/s, converted from the database's log10 values; higher is more permeable.

{"smiles": "CC(C)C[C@@H]1NC(=O)[C@H](Cc2ccc(O)cc2)N(C)C(=O)[C@H]2CCCN2C(=O)[C@H](CC(C)C)NC(=O)[C@H](CC2CCCCC2)N(C)C(=O)[C@@H](CC(C)C)N(C)C1=O", "RRCK (10^-6 cm/s)": "0.18"}
{"smiles": "CC(C)C[C@@H]1NC(=O)[C@H](Cc2ccc(O)cc2)N(C)C(=O)[C@H]2CCCN2C(=O)[C@H](CC(C)C)NC(=O)[C@H](CC(=O)N2CCOCC2)N(C)C(=O)[C@@H](CC(C)C)N(C)C1=O", "RRCK (10^-6 cm/s)": "0.63"}
{"smiles": "CC(C)C[C@@H]1NC(=O)[C@H](Cc2ccc(O)cc2)N(C)C(=O)[C@H]2CCCN2C(=O)[C@H](CC(C)C)NC(=O)[C@H](CCCCN)N(C)C(=O)[C@@H](CC(C)C)N(C)C1=O", "RRCK (10^-6 cm/s)": "0.28"}
{"smiles": "CC(C)C[C@@H]1NC(=O)[C@H](Cc2ccc(O)cc2)N(C)C(=O)[C@H]2CCCN2C(=O)[C@H](CC(C)C)NC(=O)[C@H](Cc2c[nH]c3ccccc23)N(C)C(=O)[C@@H](CC(C)C)N(C)C1=O", "RRCK (10^-6 cm/s)": "0.22"}